Sequences of proteins named here, by UniProt entry; tags and fusion partners are left off. A change or cut given only in a name is not applied to a line headed by its entry.
UniProt Q9LZ31: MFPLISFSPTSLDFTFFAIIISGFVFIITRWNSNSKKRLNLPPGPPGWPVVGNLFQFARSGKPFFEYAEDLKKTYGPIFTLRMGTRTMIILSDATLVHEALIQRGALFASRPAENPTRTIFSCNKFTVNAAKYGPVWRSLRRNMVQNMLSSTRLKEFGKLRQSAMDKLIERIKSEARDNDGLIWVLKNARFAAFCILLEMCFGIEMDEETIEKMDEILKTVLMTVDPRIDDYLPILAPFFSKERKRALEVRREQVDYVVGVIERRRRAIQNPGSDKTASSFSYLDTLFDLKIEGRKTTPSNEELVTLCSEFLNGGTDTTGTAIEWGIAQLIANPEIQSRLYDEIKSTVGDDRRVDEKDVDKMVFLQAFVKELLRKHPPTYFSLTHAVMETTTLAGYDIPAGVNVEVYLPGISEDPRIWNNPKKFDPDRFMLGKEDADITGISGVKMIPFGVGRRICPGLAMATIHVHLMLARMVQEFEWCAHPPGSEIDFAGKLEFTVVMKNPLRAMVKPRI

According to patent publication US20110283416A1, “METHODS FOR PLANT FIBER CHARACTERIZATION AND IDENTIFICATION” (LE CENTRE NATIONAL DE LA RECHERCHE SCIENTIFIQUE, priority 2008, published 2011):

Target: CYP77A4 (Arabidopsis thaliana, UniProt Q9LZ31)
Test: Kinetic studies of fatty acid metabolism by CYP77A4
Type: biochemical
Conditions: read-out: Km for metabolism by CYP77A4; 4.5 pmoles CYP77A4, 5 min; calculated with Enzyme Kinetics (Sigma Plot)

SMILES: CCCCCCCC/C=C\CCCCCCCC(=O)O [oleic acid]
- Km: 87 µM
